{
  "source": "patent EP4840843A1",
  "about": "“PTEROSTILBENE COMPOUND, PHARMACEUTICAL COMPOSITION AND USE THEREOF IN PREPARATION OF ANTI-INFLAMMATORY DRUGS” (dated 2026)",
  "key": {"[1]": {"experiment": "Pharmacokinetic study in plasma (LC/MS)"}, "[2]": {"experiment": "Stability test (high temperature, high humidity, strong light; related substances by HPLC)"}, "[3]": {"test_system": "DSS-induced mouse enteritis model", "experiment": "DSS-induced mouse enteritis model", "settings": "100 mg/kg, p.o.×9, DSS drinking water for 9 days, x±s"}, "[4]": {"experiment": "Distribution experiment in brain and other tissues (LC/MS)", "settings": "for AUC0-t, Brain / AUC0-t, Liver / AUC0-t, Lung / AUC0-t, Pancreas / AUC0-t, Plasma: single dose"}, "[5]": {"settings": "High Humidity 25 °C RH 90% ± 5%, 5 Days"}, "[6]": {"settings": "High Humidity 25 °C RH 90% ± 5%, 10 Days"}, "[7]": {"settings": "High Temperature 60 °C, 10 Days"}, "[8]": {"settings": "Light Exposure 4500 lx ± 500 lx, 5 Days"}, "[9]": {"settings": "Light Exposure 4500 lx ± 500 lx, 10 Days"}},
  "data": [
    {"smiles": "COc1cc(/C=C/c2ccc(OCCN(C)C)cc2)cc(OC)c1", "values": [
      {"measurement": "Cl", "setting": "[1]; iv (20mg/kg)", "result": 99.08, "unit": "mL/min/kg"},
      {"measurement": "MRT0-t", "setting": "[1]; iv (20mg/kg)", "result": 1.15, "unit": "h"},
      {"measurement": "Vd", "setting": "[1]; iv (20mg/kg)", "result": 27.403, "unit": "L/kg"},
      {"measurement": "AUC0-t", "setting": "[1]; iv (20 mg/kg), plasma", "result": 1134, "unit": "ng·h/mL"},
      {"measurement": "AUC0-∞", "setting": "[1]; iv (20 mg/kg), plasma", "result": 1135, "unit": "ng·h/mL"},
      {"measurement": "C0", "setting": "[1]; iv (20 mg/kg), plasma", "result": 1516, "unit": "ng/mL"},
      {"measurement": "T1/2", "setting": "[1]; iv (20 mg/kg), plasma", "result": 3.195, "unit": "h"},
      {"measurement": "MRT0-t", "setting": "[1]; po (100mg/kg)", "result": 4.91, "unit": "h"},
      {"measurement": "F", "setting": "[1]; po(100mg/kg) vs iv (20 mg/kg)", "result": 27.94, "unit": "%"},
      {"measurement": "AUC0-t", "setting": "[1]; po(100mg/kg), plasma", "result": 1585, "unit": "ng·h/mL"},
      {"measurement": "AUC0-∞", "setting": "[1]; po(100mg/kg), plasma", "result": 1622, "unit": "ng·h/mL"},
      {"measurement": "Cmax", "setting": "[1]; po(100mg/kg), plasma", "result": 689, "unit": "ng/mL"},
      {"measurement": "T1/2", "setting": "[1]; po(100mg/kg), plasma", "result": 4.91, "unit": "h"},
      {"measurement": "Tmax", "setting": "[1]; po(100mg/kg), plasma", "result": 0.50, "unit": "h"},
      {"measurement": "HPLC peak RRT 1 (main peak)", "setting": "[2]; 0 days", "result": 99.466},
      {"measurement": "related substances (HPLC), RRT 0.99", "setting": "[2]; 0 days", "result": 0.023},
      {"measurement": "related substances (HPLC), RRT 1.05", "setting": "[2]; 0 days", "result": 0.046},
      {"measurement": "related substances (HPLC), RRT 1.08", "setting": "[2]; 0 days", "result": 0.029},
      {"measurement": "HPLC peak RRT 1 (main peak)", "setting": "[2]; [5]", "result": 99.415},
      {"measurement": "related substances (HPLC), RRT 0.99", "setting": "[2]; [5]", "result": 0.026},
      {"measurement": "related substances (HPLC), RRT 1.05", "setting": "[2]; [5]", "result": 0.066},
      {"measurement": "related substances (HPLC), RRT 1.08", "setting": "[2]; [5]", "result": 0.057},
      {"measurement": "related substances (HPLC), RRT 1.09", "setting": "[2]; [5]", "result": 0.436},
      {"measurement": "HPLC peak RRT 1 (main peak)", "setting": "[2]; [6]", "result": 99.416},
      {"measurement": "related substances (HPLC), RRT 0.99", "setting": "[2]; [6]", "result": 0.027},
      {"measurement": "related substances (HPLC), RRT 1.05", "setting": "[2]; [6]", "result": 0.061},
      {"measurement": "related substances (HPLC), RRT 1.08", "setting": "[2]; [6]", "result": 0.049},
      {"measurement": "related substances (HPLC), RRT 1.09", "setting": "[2]; [6]", "result": 0.447},
      {"measurement": "HPLC peak RRT 1 (main peak)", "setting": "[2]; High Temperature 60 °C, 5 Days", "result": 99.393},
      {"measurement": "related substances (HPLC), RRT 0.99", "setting": "[2]; High Temperature 60 °C, 5 Days", "result": 0.032},
      {"measurement": "related substances (HPLC), RRT 1.05", "setting": "[2]; High Temperature 60 °C, 5 Days", "result": 0.070},
      {"measurement": "related substances (HPLC), RRT 1.08", "setting": "[2]; High Temperature 60 °C, 5 Days", "result": 0.035},
      {"measurement": "related substances (HPLC), RRT 1.09", "setting": "[2]; High Temperature 60 °C, 5 Days", "result": 0.431},
      {"measurement": "HPLC peak RRT 1 (main peak)", "setting": "[2]; [7]", "result": 99.394},
      {"measurement": "related substances (HPLC), RRT 0.99", "setting": "[2]; [7]", "result": 0.035},
      {"measurement": "related substances (HPLC), RRT 1.05", "setting": "[2]; [7]", "result": 0.080},
      {"measurement": "related substances (HPLC), RRT 1.08", "setting": "[2]; [7]", "result": 0.057},
      {"measurement": "related substances (HPLC), RRT 1.09", "setting": "[2]; [7]", "result": 0.434},
      {"measurement": "HPLC peak RRT 1 (main peak)", "setting": "[2]; [8]", "result": 99.351},
      {"measurement": "related substances (HPLC), RRT 0.54", "setting": "[2]; [8]", "result": 0.03},
      {"measurement": "related substances (HPLC), RRT 0.99", "setting": "[2]; [8]", "result": 0.052},
      {"measurement": "related substances (HPLC), RRT 1.05", "setting": "[2]; [8]", "result": 0.056},
      {"measurement": "related substances (HPLC), RRT 1.08", "setting": "[2]; [8]", "result": 0.025},
      {"measurement": "related substances (HPLC), RRT 1.09", "setting": "[2]; [8]", "result": 0.426},
      {"measurement": "related substances (HPLC), RRT 1.29", "setting": "[2]; [8]", "result": 0.024},
      {"measurement": "HPLC peak RRT 1 (main peak)", "setting": "[2]; [9]", "result": 99.017},
      {"measurement": "related substances (HPLC), RRT 0.54", "setting": "[2]; [9]", "result": 0.09},
      {"measurement": "related substances (HPLC), RRT 0.75", "setting": "[2]; [9]", "result": 0.031},
      {"measurement": "related substances (HPLC), RRT 0.85", "setting": "[2]; [9]", "result": 0.026},
      {"measurement": "related substances (HPLC), RRT 0.87", "setting": "[2]; [9]", "result": 0.100},
      {"measurement": "related substances (HPLC), RRT 0.91", "setting": "[2]; [9]", "result": 0.041},
      {"measurement": "related substances (HPLC), RRT 0.99", "setting": "[2]; [9]", "result": 0.067},
      {"measurement": "related substances (HPLC), RRT 1.05", "setting": "[2]; [9]", "result": 0.068},
      {"measurement": "related substances (HPLC), RRT 1.08", "setting": "[2]; [9]", "result": 0.082},
      {"measurement": "related substances (HPLC), RRT 1.09", "setting": "[2]; [9]", "result": 0.437},
      {"measurement": "related substances (HPLC), RRT 1.29", "setting": "[2]; [9]", "result": 0.040},
      {"measurement": "Body weight (g) Day 1 of administration", "setting": "[3]", "result": "23.3 ± 0.7", "unit": "g"},
      {"measurement": "Body weight (g) End", "setting": "[3]", "result": "20.9 ± 1.8", "unit": "g"},
      {"measurement": "Colorectal length (cm)", "setting": "[3]", "result": "6.4±0.7", "unit": "cm"},
      {"measurement": "DAI score First day of symptom onset", "setting": "[3]", "result": "0.3±0.2"},
      {"measurement": "Fold ( AUCtissue/AUCplasma ), Brain", "setting": "[4]; iv (20mg/kg)", "result": 49},
      {"measurement": "Fold ( AUCtissue/AUCplasma ), Liver", "setting": "[4]; iv (20mg/kg)", "result": 104},
      {"measurement": "Fold ( AUCtissue/AUCplasma ), Lung", "setting": "[4]; iv (20mg/kg)", "result": 26},
      {"measurement": "Fold ( AUCtissue/AUCplasma ), Pancreas", "setting": "[4]; iv (20mg/kg)", "result": 41},
      {"measurement": "AUC0-t, Brain", "setting": "[4]; iv (20mg/kg)", "result": 55058, "unit": "ng·h/g"},
      {"measurement": "AUC0-t, Liver", "setting": "[4]; iv (20mg/kg)", "result": 117789, "unit": "ng·h/g"},
      {"measurement": "AUC0-t, Lung", "setting": "[4]; iv (20mg/kg)", "result": 29414, "unit": "ng·h/g"},
      {"measurement": "AUC0-t, Pancreas", "setting": "[4]; iv (20mg/kg)", "result": 46349, "unit": "ng·h/g"},
      {"measurement": "AUC0-t, Plasma", "setting": "[4]; iv (20mg/kg)", "result": 1134, "unit": "ng·h/mL"},
      {"measurement": "Fold ( AUCtissue/AUCplasma ), Brain", "setting": "[4]; po (100mg/kg)", "result": 27},
      {"measurement": "Fold ( AUCtissue/AUCplasma ), Liver", "setting": "[4]; po (100mg/kg)", "result": 506},
      {"measurement": "Fold ( AUCtissue/AUCplasma ), Lung", "setting": "[4]; po (100mg/kg)", "result": 52},
      {"measurement": "Fold ( AUCtissue/AUCplasma ), Pancreas", "setting": "[4]; po (100mg/kg)", "result": 132},
      {"measurement": "AUC0-t, Brain", "setting": "[4]; po (100mg/kg)", "result": 42230, "unit": "ng·h/g"},
      {"measurement": "AUC0-t, Liver", "setting": "[4]; po (100mg/kg)", "result": 802349, "unit": "ng·h/g"},
      {"measurement": "AUC0-t, Lung", "setting": "[4]; po (100mg/kg)", "result": 82118, "unit": "ng·h/g"},
      {"measurement": "AUC0-t, Pancreas", "setting": "[4]; po (100mg/kg)", "result": 209482, "unit": "ng·h/g"},
      {"measurement": "AUC0-t, Plasma", "setting": "[4]; po (100mg/kg)", "result": 1585, "unit": "ng·h/mL"}
    ]}
  ]
}
